# AlphaSeq binding of Ab-95 light chain variants to a spike HR2 peptide

Reference: Engelhart et al. 2022, doi:10.1038/s41597-022-01779-4. File: FLAb, binding data.

All variants were tested on one target, the spike HR2 peptide PDVDLGDISGINAS (SARS-CoV-2).

The variants keep the heavy chain, the linker and the frameworks of Ab-95 (scFv order VH, three GGGGS repeats, VL).
VH: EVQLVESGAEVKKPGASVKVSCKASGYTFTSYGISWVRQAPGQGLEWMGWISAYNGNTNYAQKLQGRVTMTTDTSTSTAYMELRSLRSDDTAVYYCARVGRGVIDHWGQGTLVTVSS
VL: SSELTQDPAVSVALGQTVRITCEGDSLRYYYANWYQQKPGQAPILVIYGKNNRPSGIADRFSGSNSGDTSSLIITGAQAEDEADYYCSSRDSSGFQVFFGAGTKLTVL

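In library AAYL52, one, two or three CDR residues were substituted; doubles and triples were drawn at random. AlphaSeq pools MATa yeast showing the antibodies with MATalpha yeast showing the peptide. Binding brings cells together so that they mate, and sequencing counts the barcode pairs among the diploids. The ratio of observed to expected reads was calibrated, replicate by replicate, on BCL2-family standards whose Kd was known from biolayer interferometry. Mating was done three times.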

Positions count from residue 1 of the parent VL; N33D puts D in place of N. All variants listed here change N33 of the VL, counted from its first residue. Values are apparent Kd, the geometric mean of the replicates that gave a signal; lower means stronger binding. "nd" means that the variant was in the library but no mating with the target was seen in any replicate; the authors take this as a sign of poor binding, and no number exists. In this assay the parent's reference entry averaged 200 nM; its copy inside this library read 180 nM. Nonspecific signal, from three strains lacking the peptide, appeared in 28% of pairings of library AAYL52, centred on 8.2 µM (5% of these signals below 800 nM); values are not corrected for it.

The variant N33D+S92K showed 4.2 µM (3 of 3 replicates). For N33I+F95R, the assay gave nd (0 of 3 replicates). With E23P+D25I+N33S the result was 2.4 µM (1 of 3 replicates). For N33K+K50D+S88I, the assay gave 3.3 µM (1 of 3 replicates). The variant N33H+G49L+S55Q gave 1.8 µM (2 of 3 replicates). For N33H+R53C+Q96N, the assay gave 4.8 µM (1 of 3 replicates). The variant N33W+G49H+G94P gave 53 µM (2 of 3 replicates). With N33W+S93R+F98H the result was 8.9 µM (1 of 3 replicates).

The variant G24S+N33F+S88I gave 6.9 µM (2 of 3 replicates). The variant N33A+N51L+P54T showed 3.0 µM (3 of 3 replicates). With D25N+N33I the result was 73 nM (3 of 3 replicates). The variant N33I+S92K+S93P showed 880 nM (2 of 3 replicates). The variant Y31M+N33C+P54E gave nd (0 of 3 replicates). The variant N33W gave 60 µM (1 of 3 replicates). With Y29N+N33T+D91F the result was 63 µM (3 of 3 replicates). With N33E+G49A the result was 980 nM (3 of 3 replicates).

The variant G24A+N33G+R53D gave 8.1 µM (3 of 3 replicates). For N33M+F98I, the assay gave 56 µM (1 of 3 replicates). The variant N33Y+F95G+Q96V gave 20 µM (2 of 3 replicates). For N33F+P54C+D91E, the assay gave 29 nM (3 of 3 replicates). The variant N33Y+P54A+S55R showed 11 µM (1 of 3 replicates). The variant N33T+N52Y+P54L showed 8.8 µM (2 of 3 replicates). For N33F+G49P+S92R, the assay gave 1.4 µM (1 of 3 replicates). The variant Y31W+N33M+G94K showed 330 nM (3 of 3 replicates).

With A32R+N33R+S89W the result was 7.6 µM (2 of 3 replicates). The variant N33D+S89I+D91N showed nd (0 of 3 replicates). With Y29G+Y31E+N33Q the result was 740 nM (3 of 3 replicates). With Y29N+N33P the result was 1.7 µM (1 of 3 replicates). The variant N33P+N52M+F95N showed 28 µM (2 of 3 replicates). For G24Q+N33M+K50T, the assay gave 2.0 µM (3 of 3 replicates). The variant S26Q+A32Q+N33I showed nd (0 of 3 replicates). The variant D25F+N33V+R53I gave nd (0 of 3 replicates).

For N33F+S88P+V97E, the assay gave 35 µM (1 of 3 replicates). The variant N33S+F95D+V97I gave 50 µM (1 of 3 replicates). For N33R+S55V, the assay gave 39 µM (2 of 3 replicates). With Y31H+N33W+D91N the result was 92 µM (1 of 3 replicates). For N33G+N52D, the assay gave 8.0 µM (1 of 3 replicates). With G24A+N33R+S92V the result was nd (0 of 3 replicates). With N33T+R53C+Q96R the result was 23 µM (1 of 3 replicates). The variant Y29E+N33E+N51S gave 31 µM (2 of 3 replicates).

The variant L27S+N33E+R53E gave nd (0 of 3 replicates). The variant N33F+G49L+S88N showed 42 µM (2 of 3 replicates). The variant N33W+G49V+P54F gave 4.0 µM (1 of 3 replicates). The variant N33Q+R90W+V97H gave 7.7 µM (2 of 3 replicates).

Picked from the list: the 5 lowest averages where every replicate gave a value.

{"changes": "N33F+P54C+D91E", "Kd (apparent)": "29 nM", "replicates with signal": "3/3"}
{"changes": "D25N+N33I", "Kd (apparent)": "73 nM", "replicates with signal": "3/3"}
{"changes": "Y31W+N33M+G94K", "Kd (apparent)": "330 nM", "replicates with signal": "3/3"}
{"changes": "Y29G+Y31E+N33Q", "Kd (apparent)": "740 nM", "replicates with signal": "3/3"}
{"changes": "N33E+G49A", "Kd (apparent)": "980 nM", "replicates with signal": "3/3"}